# Residue numbers refer to the chain shown, from its start. pEC50, pKi: −log10 of the molar value. Read-outs that look alike come from different tables or passages of the source.
# The chains behind the UniProt entries cited, without tags or fusion partners. Residues count along the entry.
# UniProt P34998, 24-415: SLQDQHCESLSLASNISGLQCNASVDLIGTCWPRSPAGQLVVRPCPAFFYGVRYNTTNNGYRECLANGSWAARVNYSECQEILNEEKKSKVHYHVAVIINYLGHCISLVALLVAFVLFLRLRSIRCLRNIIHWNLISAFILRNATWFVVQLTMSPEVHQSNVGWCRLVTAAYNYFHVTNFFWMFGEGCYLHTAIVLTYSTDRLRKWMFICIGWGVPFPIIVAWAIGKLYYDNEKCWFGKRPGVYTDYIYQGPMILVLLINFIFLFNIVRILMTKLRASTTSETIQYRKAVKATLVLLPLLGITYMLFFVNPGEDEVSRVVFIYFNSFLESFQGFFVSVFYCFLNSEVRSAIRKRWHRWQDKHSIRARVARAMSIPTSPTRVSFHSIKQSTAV
# Columns and labels:
# CRF-R1 = biological target: T1, CRF-R1 (Rattus norvegicus, UniProt P35353); test: cAMP accumulation in primary rat anterior pituitary cells expressing endogenous CRF-R1; type: cell-based; settings: read-out: EC50, cAMP accumulation in primary rat anterior pituitary cells; FIG. 3B; stimulated for 45 min
# T1 construct: cells expressing endogenous CRF-R1 (cultured primary anterior pituitary cells, (5)) or CRF-R2β (A7r5 cells, (27)); endogenous in cells; host or cells: primary rat anterior pituitary cells in culture
# T1 sequence (P35353 24-415): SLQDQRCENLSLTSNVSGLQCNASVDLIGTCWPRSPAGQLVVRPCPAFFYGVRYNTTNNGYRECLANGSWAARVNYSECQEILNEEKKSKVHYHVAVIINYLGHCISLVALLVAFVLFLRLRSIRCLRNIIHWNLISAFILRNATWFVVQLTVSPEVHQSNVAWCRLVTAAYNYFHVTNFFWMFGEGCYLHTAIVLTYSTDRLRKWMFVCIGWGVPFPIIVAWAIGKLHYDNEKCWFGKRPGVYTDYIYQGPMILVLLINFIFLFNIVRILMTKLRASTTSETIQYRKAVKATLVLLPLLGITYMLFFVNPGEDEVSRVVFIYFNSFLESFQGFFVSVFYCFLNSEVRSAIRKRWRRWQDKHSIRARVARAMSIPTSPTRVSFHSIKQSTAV
# Experimental: The abilities of Ucn II and Ucn III to activate adenylate cyclase in cells expressing endogenous CRF-R1 (cultured primary anterior pituitary cells, (5)) or CRF-R2β (A7r5 cells, (27)). Rat aortic smooth muscle cells, A7r5, were plated into 48-well culture dishes and allowed to recover for 48 h. Cells were starved in DMEM/0.2% FBS overnight before the experiment. The cells were preincubated with 0.1 mM 3-isobutyl-1-methylxanthine for 30 min and then exposed to peptides for 20 min at 37° C. Rat anterior pituitary cells were established in culture (28) and treated with test peptides for 45 min at 37° C. Intracellular cAMP was extracted from all cells and measured from triplicate wells using a radioimmunoassay kit (Biomedical Technologies). Potencies were determined using the PRISM […].
# hCRF-R1 [1] = biological target: T2, hCRF-R1 (Homo sapiens, UniProt P34998); test: Competitive displacement of [125I-Tyr0,Glu1,Nle17]-sauvagine from membranes of CHO cells stably expressing hCRF-R1; settings: read-out: Binding to Membranes from CHO cells stably expressing hCRF-R1 (Ki); three to six independent experiments; average from log10 values
# T2 construct: expressed in transfected cells
# T2 sequence (P34998 24-415): T1 sequence (P35353 24-415) with R6H, N9S, T13A, V16I, V153M, A163G, V209I, H229Y, R356H
# hCRF-R1 [2] = biological target: T2, hCRF-R1; test: cAMP accumulation in CHO cells stably expressing hCRF-R1; type: cell-based; settings: read-out: cAMP in CHO cells stably expressing hCRF-R1 (EC50), peptides for 20 min at 37° C
substance,measurement,setting,value
"urocortin [Urocortin (rat), reference compound]",pEC50,CRF-R1,8.64
same,pKi,hCRF-R1 [1],9.49
same,pEC50,hCRF-R1 [2],9.82
same,pEC50,hCRF-R1 [2]; listed as Ucn,~9.82

# Reference: patent publication US6812210B2, “Urocortin-III and uses thereof” (priority 2001, dated 2004)
